Measurements published in ChEMBL document CHEMBL4152209, “Synthesis of 7β-hydroxy-8-ketone opioid derivatives with antagonist activity at mu- and delta-opioid receptors” (Eur J Med Chem, 2018).

Protein sequences, listed by entry. Tags and fused reporters are not part of them. Lines headed by an entry give the natural chain unless they say otherwise; changes in a name come on top.
UniProt P41145: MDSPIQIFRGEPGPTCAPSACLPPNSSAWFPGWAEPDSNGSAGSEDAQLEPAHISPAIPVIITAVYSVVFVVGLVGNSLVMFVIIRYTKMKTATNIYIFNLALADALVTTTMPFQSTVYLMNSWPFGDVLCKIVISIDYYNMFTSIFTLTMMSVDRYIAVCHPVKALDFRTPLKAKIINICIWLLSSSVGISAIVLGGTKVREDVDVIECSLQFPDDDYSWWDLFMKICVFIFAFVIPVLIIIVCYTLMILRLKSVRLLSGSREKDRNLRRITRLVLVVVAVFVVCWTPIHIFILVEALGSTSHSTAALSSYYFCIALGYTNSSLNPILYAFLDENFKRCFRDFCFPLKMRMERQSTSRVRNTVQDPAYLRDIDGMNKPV

Key:
[1] = target: Kappa-type opioid receptor (Homo sapiens) (UniProt P41145); conditions: at 1 µM
[2] = target: Kappa-type opioid receptor (Homo sapiens) (UniProt P41145); conditions: at 10 µM

SMILES: CN(C(=O)Cc1ccc(Cl)c(Cl)c1)C1CCCCC1N1CCCC1 (configuration not stated)
- inhibition [1]: 91%
- inhibition [2]: 95%
